# Antibody variant affinities, Ab-91 heavy chain, assay 2

Data: MIT Lincoln Laboratory AlphaSeq set, Engelhart et al. 2022, doi:10.1038/s41597-022-01779-4, as distributed in FLAb.

All variants were tested on one target, the spike HR2 peptide PDVDLGDISGINAS (SARS-CoV-2).

Ab-91 is the parent antibody, in scFv form: VL, then a 15-residue (Gly4Ser)3 linker, then VH. The light chain is unchanged in all variants.
VL: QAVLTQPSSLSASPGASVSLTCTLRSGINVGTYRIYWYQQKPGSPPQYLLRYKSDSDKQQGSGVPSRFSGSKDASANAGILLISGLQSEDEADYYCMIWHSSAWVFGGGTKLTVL
VH: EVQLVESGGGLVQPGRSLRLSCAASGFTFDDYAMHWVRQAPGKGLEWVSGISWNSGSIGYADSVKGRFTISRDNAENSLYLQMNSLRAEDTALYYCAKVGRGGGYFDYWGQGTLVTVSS

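In library AAYL51, one, two or three CDR residues were substituted; doubles and triples were drawn at random. In AlphaSeq, yeast of one mating type display the scFv and yeast of the other type display the target. Binding brings cells together so that they mate, and sequencing counts the barcode pairs among the diploids. A regression on co-assayed BCL2-family reference pairs converts the normalised counts of each replicate to an apparent Kd. Mating was done three times.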

Variants are written as CDR1, CDR2 and CDR3 of the heavy chain (limits as in the source). Parent: GFTFDDYAMH, GISWNSGSIGYADSVK, VGRGGGYFDY.
Affinities are written as log10 Kd with Kd in nM; a lower number is a better binder.
Averages over replicates are reported, and they cover detected replicates only.
"nd" means that the variant was in the library but no mating with the target was seen in any replicate; the authors take this as a sign of poor binding, and no number exists.
Empty control strains, which show no peptide, gave a signal in 21% of pairings with library AAYL51; the median was 4.54 and 95% of these signals were weaker than 3.26. No background was subtracted. The control count says in how many pairings with the empty strains this scFv gave a signal.
Parent in this assay: reference entry 1.86, copy in this library 0.88.

Variant GFTFDDMAMH | GISWNSGQIGYADRVK | VGRGGGYFDY gave 3.94 (1 of 3 replicates; controls 1 of 9).
Variant GFTFDDYAMH | GISWNSGSIGYADSVK | VGRGGQYFIY gave nd (0 of 3 replicates; controls 0 of 9).
Variant GFTFDCYAMH | GISINSGSIGYADSVK | VGGGGGYFDY gave 3.88 (2 of 3 replicates; controls 2 of 9).
Variant GFTFMDYAMH | GIGWNSGSIGYADSVK | VGRGGGYADY gave nd (0 of 3 replicates; controls 2 of 9).
Variant GFTFDDEAGH | GISWNSGSIGYADSVK | VGRGGGYFNY gave 5.56 (1 of 3 replicates; controls 2 of 9).
Variant GFTFDDYACH | GISWNSGSIGVAVSVK | VGRGGGYFDY gave 4.32 (1 of 3 replicates; controls 1 of 9).
Variant GFTFDDYAMH | GWHWNSGSIGYADCVK | VGRGGGYFDY gave 5.58 (3 of 3 replicates; controls 4 of 9).
Variant GFTFDDYYMH | GISKNSHSIGYADSVK | VGRGGGYFDY gave 5.46 (3 of 3 replicates; controls 7 of 9).
Variant GFTFDDYAMH | GISWLSGSIGYADSVK | VGRGGGIFIY gave nd (0 of 3 replicates; controls 1 of 9).
Variant GFTFDDYAMY | GISWNSGSIGYADSVV | VGRGGGYYDY gave nd (0 of 3 replicates; controls 1 of 9).
Variant GFTFDDYAMH | GISWNSGSIGYADYVK | VRRGHGYFDY gave 4.65 (2 of 3 replicates; controls 3 of 9).
Variant GFTFDDYAMH | GISWNSGSIEYADSVK | VGRGGGYRDY gave nd (0 of 3 replicates; controls 2 of 9).
Variant GFTFDDFAMH | GISWNSGSIFYAISVK | VGRGGGYFDY gave 5.35 (1 of 3 replicates; controls 4 of 9).
Variant GFIFDDYAMH | GISWHSGSIGYADSVK | VGRGGGYFDY gave 2.64 (3 of 3 replicates; controls 4 of 9).
Variant GFTQDDYAMH | GIRWNSGSIGYADSVK | VQRGGGYFDY gave 4.79 (1 of 3 replicates; controls 0 of 9).
Variant GFTFDDYAMH | GISWNEGSIGYAISVK | VGRGGCYFDY gave 5.08 (2 of 3 replicates; controls 3 of 9).
Variant GFTFDDYAMC | GISWNSGSIGYADSVK | VGRLKGYFDY gave nd (0 of 3 replicates; controls 1 of 9).
Variant GFTFDDYAWH | MISWNSGSIAYADSVK | VGRGGGYFDY gave nd (0 of 3 replicates; controls 0 of 9).
Variant GFTFDDYDMH | GISCNSGSIGYADSVK | FGRGGGYFDY gave 4.98 (3 of 3 replicates; controls 3 of 9).
Variant GFTFDDYAMH | GISWNIGSIGFHDSVK | VGRGGGYFDY gave 4.90 (2 of 3 replicates; controls 0 of 9).
Variant GFTFDDYAMH | SISWNSGSIGIADSVK | VGRGGGYFDY gave 5.12 (2 of 3 replicates; controls 6 of 9).
Variant GFTFDPYAMH | GISWNSGSIGYADSVK | VSRGKGYFDY gave 4.14 (3 of 3 replicates; controls 0 of 9).
Variant GFTKDDYAMH | GISWNSGSIGYAQSVK | VGRGGGYFDY gave 1.72 (3 of 3 replicates; controls 3 of 9).
Variant GFTFDDYAMH | GISWNSGSIGYADSEN | VGRGGGYFDY gave nd (0 of 3 replicates; controls 0 of 9).
Variant GFTWDDYAMH | GISWRSGSIGYADSVK | VGRGGGYMDY gave 3.23 (2 of 3 replicates; controls 0 of 9).
Variant GFTFDDWAMH | GISWNSDSIGYADSVK | VARGGGYFDY gave 2.36 (3 of 3 replicates; controls 5 of 9).
Variant GCTFDDYAMH | GISWNSGSIGYADSVK | YGRGGGLFDY gave nd (0 of 3 replicates; controls 0 of 9).
Variant GFTFDDYAMH | GISWNNGSIGYADSVK | VIRGGGYFDF gave nd (0 of 3 replicates; controls 1 of 9).
Variant GFTFDDYAPH | GISLNSGSIGYADSVK | VGRGGGYFDY gave 3.85 (1 of 3 replicates; controls 1 of 9).
Variant GFTPDDYAMH | GISWNSGSIGYRDSVK | VTRGGGYFDY gave 4.22 (3 of 3 replicates; controls 3 of 9).
Variant GFTFDDYAMP | GISWNSGSRGYADSVK | VGRGGGYKDY gave 4.68 (1 of 3 replicates; controls 1 of 9).
Variant GFTFDAYAMH | GISWNSGSINYADSVK | VGRYGGYFDY gave 4.39 (2 of 3 replicates; controls 6 of 9).
Variant GRTFDDYDMH | GISWNSGSIGYARSVK | VGRGGGYFDY gave nd (0 of 3 replicates; controls 0 of 9).
Variant GFTFDDYAMH | GISWNSGWIGYADSVK | VIRGGGYEDY gave nd (0 of 3 replicates; controls 1 of 9).
Variant MFTFDDPAMH | GISWNSGSIGYADSVK | VGRGGYYFDY gave 4.52 (1 of 3 replicates; controls 1 of 9).
Variant GFTFDDYAMH | LISWNSGSIGYADSVK | VGRGGGVFDS gave nd (0 of 3 replicates; controls 0 of 9).
Variant GFTFDDYIMH | GISWNSGSIGYTDSVK | VGRGGAYFDY gave nd (0 of 3 replicates; controls 2 of 9).
Variant GFTFDDYAMH | GISWNSGSIGAADSVS | VGRYGGYFDY gave 4.90 (1 of 3 replicates; controls 4 of 9).
Variant HFTFDDYWMH | GISWNSHSIGYADSVK | VGRGGGYFDY gave 3.28 (1 of 3 replicates; controls 0 of 9).
Variant GFTFFDYAMH | GISWNSVSIGYAVSVK | VGRGGGYFDY gave nd (0 of 3 replicates; controls 0 of 9).
Variant GFTFDDYAWH | GISWNSGSIGYADSVG | VGRGGGYFDQ gave 4.53 (1 of 3 replicates; controls 0 of 9).
Variant GFTFDDYAMH | HISWHSGSIGYADSVK | VGRGGKYFDY gave nd (0 of 3 replicates; controls 0 of 9).
Variant GNTFDDYAMH | GISWNSDSIGYADSVK | VGRGGKYFDY gave 3.52 (3 of 3 replicates; controls 6 of 9).
Variant GATFDPYAMH | GISWWSGSIGYADSVK | VGRGGGYFDY gave 4.10 (1 of 3 replicates; controls 3 of 9).

The 5 strongest on average among those seen in every replicate, once more:

For GFTKDDYAMH | GISWNSGSIGYAQSVK | VGRGGGYFDY, the assay gave 1.72 (3 of 3 replicates; controls 3 of 9).
For GFTFDDWAMH | GISWNSDSIGYADSVK | VARGGGYFDY, the assay gave 2.36 (3 of 3 replicates; controls 5 of 9).
For GFIFDDYAMH | GISWHSGSIGYADSVK | VGRGGGYFDY, the assay gave 2.64 (3 of 3 replicates; controls 4 of 9).
For GNTFDDYAMH | GISWNSDSIGYADSVK | VGRGGKYFDY, the assay gave 3.52 (3 of 3 replicates; controls 6 of 9).
For GFTFDPYAMH | GISWNSGSIGYADSVK | VSRGKGYFDY, the assay gave 4.14 (3 of 3 replicates; controls 0 of 9).